Assay results: ChEMBL document CHEMBL1131886 (Bioorg Med Chem Lett, 1999)
pKi: −log10 of the molar value.

The chains behind the UniProt entries cited, without tags or fusion partners.
UniProt P31652, whole entry: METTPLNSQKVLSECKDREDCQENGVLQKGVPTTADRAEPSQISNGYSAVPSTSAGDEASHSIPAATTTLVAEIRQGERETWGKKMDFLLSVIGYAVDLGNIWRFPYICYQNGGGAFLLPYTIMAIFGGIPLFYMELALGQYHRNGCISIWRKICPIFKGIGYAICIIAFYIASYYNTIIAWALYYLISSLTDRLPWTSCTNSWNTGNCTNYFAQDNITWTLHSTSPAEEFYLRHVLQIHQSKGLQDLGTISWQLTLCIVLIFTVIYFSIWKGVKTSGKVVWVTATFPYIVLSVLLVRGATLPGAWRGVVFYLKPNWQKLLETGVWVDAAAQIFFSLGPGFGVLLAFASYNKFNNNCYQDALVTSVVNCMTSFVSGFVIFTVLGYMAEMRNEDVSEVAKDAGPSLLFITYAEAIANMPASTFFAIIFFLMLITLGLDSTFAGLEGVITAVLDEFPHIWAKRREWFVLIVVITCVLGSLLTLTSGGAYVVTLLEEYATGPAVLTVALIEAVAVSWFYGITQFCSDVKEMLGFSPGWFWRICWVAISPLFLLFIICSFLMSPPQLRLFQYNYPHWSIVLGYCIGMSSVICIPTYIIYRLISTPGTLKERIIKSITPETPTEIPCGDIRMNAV

Biological target: Sodium-dependent serotonin transporter (Rattus norvegicus, UniProt P31652)
Experiment: Displacement of specific [3H]- citalopram binding to 5-HT uptake site in rat whole cortex

SMILES: CC(C)NCC(O)COc1cccc2[nH]ccc12 (stereo unspecified) [PINDOLOL]
- pKi: < 5.15
